miR-21 reporter = raises the signal of a miR-21 reporter; HeLa miR-21 FLuc reporter, luciferase, 48 h; Potency, µM (series often up to 38.3 µM); 340,000 tested, under 10 active; active = well fitted rising curve with a large enough effect; inconclusive = small, poorly fitted or top-dose-only effect; inactive = no such curve, though single readings can be large or run the other way;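 also: miR-21 action dims this reporter so a rising signal means less miR-21 action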
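HeLa cells stably expressing CMV-driven firefly luciferase with a downstream miR-21 binding sequence, endogenously expressing miR-21, were treated with titrations (up to about 40uM final) for 48 hours at 37 degree Celsius. Luciferase luminescence was read after lysis.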
Nrf2 ARE act = activates Nrf2 signaling. AREc32 ARE-luciferase reporter (MCF7-derived line), luminescence, 24 h. Potency, µM (doses to about 46.1 µM), most hits filed as activators. 410,000 tested, 0.31% active. AID 624171; note: nearly all actives have a fitted effect of over 65% in size
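Cells of the AREc32 ARE-luciferase line are plated in OPTI-MEM containing 5% FBS and left overnight at 37 deg C. Compounds are pinned in, incubation continues 24 hr, and firefly luciferase signal is then measured.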
TCR act = activators of T cell receptors; primary human leukocytes, anti-CD3, IL-2 HTRF, 48 h; Potency, µM (doses to about 9.22 µM), usual class: activators; 330,000 tested, under 10 active
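Primary human leukocytes were stimulated with a-CD3 beads plus compounds for 48 hr without co-stimulation; secreted IL-2 was quantified by HTRF using a-IL-2-K (europium cryptate) and a-IL-2-d2, excited at 320nm with acceptor emission read at 665nm.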
A549 viability = A549 cytotoxicity, counter-screen for Nrf2 inhibitors; 390,000 tested, 0.16% active; AID 504648; A549 ARE-Fluc cells, CellTiter-Fluor viability, 18-24 h; Potency, µM (doses to about 46 µM), most hits filed as inhibitors
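A549 ARE-Fluc cells in 5% FBS OPTI-MEM, 5000 cells/well, rested 2 h then exposed to compounds in concentration-response for 18-24 h at 37 °C. Viability by CellTiter-Fluor fluorescence (Ex 405/Em 525) after 30 min; luciferase luminescence (BugLite, 15 min, RT) read afterwards.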
ClpP mod = qHTS Assay for Activators of ClpP; ATP-dependent Clp protease proteolytic subunit (Bacillus subtilis (strain 168)), P80244; purified B. subtilis ClpP, FRET peptide cleavage, 20 min; Potency, µM (highest dose often 57.5 µM); 340,000 tested, 1.9% active; active = well fitted falling curve with a large enough effect; inconclusive = small, poorly fitted or top-dose-only effect; inactive = no such curve, though single readings can be large or run the other way; note: the source files actives as falling curves though it sought activators and does not explain the sign; nearly all actives have a fitted effect of over 65% in size
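ClpP 10 microg/mL final, pH 8 Tris/KCl buffer with BSA, glycerol, Tween-20; compound pinned in; FRET-FV substrate; RT 20 min; Ex320/Em430; ΔFRET vs ADEP 5.8 microM, DMSO, no enzyme.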
Nrf2 inh = inhibitors of Nrf2 signaling; A549 ARE-Fluc reporter, luciferase luminescence, 18-24 h; Potency, µM (titrated, usually from 46 µM), most hits filed as inhibitors; 360,000 tested, 2.1% active; note: nearly all actives have a fitted effect of over 60% in size
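Two sequential reads on A549 ARE_Fluc cells exposed to compound for 18-24 h: a CellTiter-Fluor fluorescence read for viability, then a luciferase luminescence read for Nrf2/ARE activity.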
Hits are given with their value; – = inactive; ? = inconclusive; · = no result given. Hits are enriched below; roughly 3.7% of the tested compounds scored in any of these assays. Unless noted, calls come from the whole dose curve; as a rule, active = well fitted curve in the direction sought with a large enough effect; inconclusive = small, poorly fitted or top-dose-only effect, or another doubt; inactive = no such curve, though single readings can be large; an effect the other way counts as inactive or inconclusive.

SMILES | miR-21 reporter | Nrf2 ARE act | TCR act | A549 viability | ClpP mod | Nrf2 inh
COc1ccc(-c2cc(=Nc3ccc(C)cc3)c3ccccc3o2)cc1 | – | – | – | – | – | ?
COc1ccc(N=c2cc(-c3ccc(OC)cc3)oc3ccccc23)cc1 | – | – | – | ? | – | 16µM
O=[N+]([O-])c1ccc(N2CCN(c3ccc(O)cc3)CC2)cn1 | – | – | – | – | – | 21µM
NC(=O)c1cc(S(=O)(=O)N2CCOCC2)ccc1Sc1ccccc1N | · | – | – | – | · | –
CC1=C(C(=O)N(C)C)CC(CC(=O)NC2CCCC2)C(=O)N1Cc1ccc(F)cc1 (centres undefined) | · | – | · | · | – | ·
CCCCn1c(SCc2nc(N)nc(Nc3ccccc3C)n2)nc2ccccc2c1=O | – | – | – | – | – | 21µM
COc1ccccc1OCC(=O)Nc1c(C(=O)c2ccc(F)cc2)oc2ccccc12 | – | – | · | – | – | –
CCOC(=O)c1ccc(CC(=O)c2oc3cc(O)ccc3c2C)o1 | – | – | – | – | 32µM | –
CCOC(=O)c1ccc(CC(=O)c2ccc(O)c(O)c2O)o1 | – | – | – | – | · | –
C/C=C(\C)C(=O)OC1c2c(ccc3ccc(=O)oc23)OC(C)(C)C1OC(C)=O (centres undefined) | – | – | – | – | 32µM | ?
Cn1c(CC(=O)NC(C)(C)CO)c(Sc2ccccc2)c2ccccc21 | – | – | – | – | – | –
CCOC(=O)Cc1c(Sc2ccccc2)c2ccccc2n1C | – | – | – | – | – | 23µM
O=C(Nc1ccc2oc(=O)ccc2c1)c1ccc(-c2cccc(Cl)c2)o1 | – | – | – | – | – | 18µM
O=C(Nc1ccc2oc(=O)ccc2c1)c1ccc(-c2cccc([N+](=O)[O-])c2)o1 | – | – | – | ? | · | 23µM
O=C(Nc1ccc2oc(=O)ccc2c1)c1ccc(-c2ccc(Cl)cc2)o1 | – | – | – | – | – | –
CCOc1cc(/C=C(\C#N)C(=O)Nc2ccc(S(N)(=O)=O)cc2)ccc1OCCN1CCOCC1 | – | – | – | – | – | –
COc1ccc(S(=O)(=O)Nc2cccc(-c3ccc4nncn4n3)c2)c(OC)c1 | · | – | – | – | · | –
COCCn1c(SCc2csc(-c3ccccc3)n2)nc2ccccc21 | – | – | – | – | – | 21µM
C/C=C1\COC(C(=O)NCCOCCO)(C(F)(F)F)C=C1C=C1CCCCC1 (centres undefined) | · | · | · | – | · | –
COc1ccc(Br)c(C(=O)N2CCN(S(=O)(=O)/C=C/c3ccccc3)CC2)c1 | – | – | · | – | 28µM | ?
CCOC(=O)c1ccc(NC(=O)c2csnn2)cc1 | – | – | · | – | – | –
CCCCn1c(N)c(N(CC(C)C)C(=O)c2cccc(S(=O)(=O)N(CC)c3ccccc3)c2)c(=O)[nH]c1=O | · | – | – | – | – | –
Cc1ccc(NC2=C/C(=N\S(=O)(=O)c3cccs3)c3ccccc3C2=O)c(C)c1 | ? | – | – | 18µM | – | ?
Cc1cccc(NC2=C/C(=N/S(=O)(=O)c3cccs3)c3ccccc3C2=O)c1 | ? | – | – | ? | – | ?
Cc1ccc(Cl)cc1NC1=C/C(=N\S(=O)(=O)c2cccs2)c2ccccc2C1=O | ? | – | – | ? | – | 16µM
SMILES | miR-21 reporter | Nrf2 ARE act | TCR act | A549 viability | ClpP mod | Nrf2 inh
COc1ccc(C2Nc3ccccc3C(=O)N2Cc2cccc(-c3ccccc3)c2)cc1COc1ccc(NC(C)=O)cc1 (centres undefined) | · | · | · | – | · | ?
Cc1ccc(-c2cc(NC(=O)COc3ccc(Cl)cc3C)on2)cc1 | – | – | · | – | – | ?
O=P(c1ccccc1)(c1ccccc1)c1ccc(O)cc1 | – | – | – | – | · | –
Cc1cccc(S(=O)(=O)Nc2ccc(-c3cn4ccccc4n3)cc2)c1 | – | – | – | – | 28µM | ?
O=S(=O)(Nc1ccc(-c2cn3ccccc3n2)cc1)c1ccccc1 | – | – | – | – | – | –
O=C(Nc1cccc(-c2cn3ccccc3n2)c1)c1ccccc1 | – | – | – | – | – | ?

Screening data deposited in PubChem BioAssay by National Center for Advancing Translational Sciences (NCATS).
